Biological target: HPV16 quasivirus capsid containing L1 and L2 proteins and encapsidating a cottontail rabbit papillomavirus genome (CRPV) (Human papillomavirus type 16 (L1 from HPV16 sheLL plasmid; isolate not named)) (UniProt P03101)
Assay: cryo-EM structure

## Fab of the neutralizing monoclonal antibody H16.U4
  Fab density relative to capsid density: 70%
  sites per capsid occupied on average (sites per capsid): 42
  stoichiometry N (Fab binding sites per capsid): 60
